# Measured values: US20120093806A1, “ANTITUMOR COMBINATIONS CONTAINING ANTIBODIES RECOGNIZING SPECIFICALLY CD38 AND CYTARABINE” (SANOFI-AVENTIS, priority 2008, published 2012)
# Settings: days 18, 21, 24, 27
# Protocol: The animals subjected to the experiment, generally mice, are subcutaneously grafted bilaterally with 30 to 60 mg of a tumor fragment on day 0. The animals bearing tumors are randomized based on their tumor size before being subjected to the various treatments and controls. Chemotherapy begins when tumors have reached a predetermined size after grafting, depending on the type of tumor, and the animals are observed every day. […] The groups are then weighed once or twice a week until the end of the trial.
# The selected tumor model was a transplantable human T-cell acute lymphoblastic leukemia (T-ALL) cell line, DND-41, implanted in SCID mice.
# Hu38SB19 was formulated in phosphate buffer saline, without Ca^2+ and Mg^2+, pH7.4. Hu38SB19 was administered intravenously on days 18, 21, 24, 27 after tumor implantation.
smiles,measurement,setting,value
CCCCCCCCCCCCCCCC(=O)Nc1ccn([C@@H]2O[C@H](CO)[C@@H](O)[C@@H]2O)c(=O)n1 [Palmo Ara-C],drug death (deaths/mice treated),Palmo Ara-C 22.3 mg/kg/inj SC (total 89.2),0/6
same,drug death (deaths/mice treated),Palmo Ara-C 36.0 mg/kg/inj SC (total 144.0),0/6
same,drug death (deaths/mice treated),Palmo Ara-C 58.0 mg/kg/inj SC (total 232.0),0/6
same,drug death (deaths/mice treated),Palmo Ara-C 96.3 mg/kg/inj SC (total 385.2),6 and 6/6

# “And” between values parts separate entries of the source, which are not always exact repeats. Equal entries are not always repeated. Where two headings read alike, the source gives them in different places.
